Consider 1 compound from ChEMBL document CHEMBL4665801, “Pyrazole-Based Lactate Dehydrogenase Inhibitors with Optimized Cell Activity and Pharmacokinetic Properties” (J Med Chem, 2020).

Series [1] deals with T1, PXR (nuclear receptor subfamily 1 group I member 2) (Homo sapiens, UniProt O75469).
T1 sequence (O75469 whole entry): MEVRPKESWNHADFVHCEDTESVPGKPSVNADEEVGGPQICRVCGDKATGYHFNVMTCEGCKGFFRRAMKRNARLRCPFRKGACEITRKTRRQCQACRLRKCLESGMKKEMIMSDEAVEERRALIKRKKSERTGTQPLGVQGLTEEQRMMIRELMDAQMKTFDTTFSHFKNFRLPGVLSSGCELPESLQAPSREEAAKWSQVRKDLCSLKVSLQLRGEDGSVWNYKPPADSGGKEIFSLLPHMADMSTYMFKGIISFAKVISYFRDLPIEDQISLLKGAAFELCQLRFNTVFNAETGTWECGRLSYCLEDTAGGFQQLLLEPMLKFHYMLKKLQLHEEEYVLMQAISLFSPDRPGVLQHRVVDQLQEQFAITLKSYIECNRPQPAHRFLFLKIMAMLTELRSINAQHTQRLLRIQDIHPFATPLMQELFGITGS
As to the kind of experiment: Activation of PXR (unknown origin) up to 10 uM relative to control. Format: ADME. The settings on record: read-out: FC.

Series [2] has as its target T2, AhR (aryl hydrocarbon receptor) (Homo sapiens, UniProt P35869).
T2 sequence (P35869 whole entry): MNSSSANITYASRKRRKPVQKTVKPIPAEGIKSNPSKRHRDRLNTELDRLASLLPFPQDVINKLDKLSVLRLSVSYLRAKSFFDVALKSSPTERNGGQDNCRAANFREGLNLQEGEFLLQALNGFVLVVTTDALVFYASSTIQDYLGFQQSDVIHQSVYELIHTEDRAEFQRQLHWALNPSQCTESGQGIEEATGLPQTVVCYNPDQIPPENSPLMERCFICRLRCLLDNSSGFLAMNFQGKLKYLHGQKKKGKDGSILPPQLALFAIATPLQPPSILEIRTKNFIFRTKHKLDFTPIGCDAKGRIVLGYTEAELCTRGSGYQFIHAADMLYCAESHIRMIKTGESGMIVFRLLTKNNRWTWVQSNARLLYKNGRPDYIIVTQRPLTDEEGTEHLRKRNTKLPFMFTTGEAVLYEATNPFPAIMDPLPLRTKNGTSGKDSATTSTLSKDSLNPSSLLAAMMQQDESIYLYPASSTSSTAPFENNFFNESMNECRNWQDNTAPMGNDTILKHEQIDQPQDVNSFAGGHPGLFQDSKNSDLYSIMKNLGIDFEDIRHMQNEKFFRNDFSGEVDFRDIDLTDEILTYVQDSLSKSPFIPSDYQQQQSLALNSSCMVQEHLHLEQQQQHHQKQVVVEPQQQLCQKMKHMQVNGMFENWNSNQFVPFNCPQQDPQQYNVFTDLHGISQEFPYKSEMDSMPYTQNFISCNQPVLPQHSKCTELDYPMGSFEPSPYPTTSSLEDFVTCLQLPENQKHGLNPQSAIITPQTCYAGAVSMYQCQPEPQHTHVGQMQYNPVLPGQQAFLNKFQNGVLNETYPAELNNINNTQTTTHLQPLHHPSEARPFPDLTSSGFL
As to the kind of experiment: Activation of AhR (unknown origin) up to 10 uM relative to control. The settings on record: read-out: FC. Format: ADME.

For the compound `Cc1ccc(C#Cc2cc(-c3nn(-c4nc(C(=O)O)cs4)c(CC4CC4)c3Cc3ccc(S(N)(=O)=O)c(F)c3)ccc2F)s1`, the fold induction in series [1] and in series [2] was below 2 in each case.
